Molecular target: T1, hTCPTP (Homo sapiens, UniProt P17706)
T1 construct: His tag (vector pET-28a(+)-TEV, with TEV site); made in house; host or cells: E. coli BL21 (DE3)
T1 sequence (P17706 1-415): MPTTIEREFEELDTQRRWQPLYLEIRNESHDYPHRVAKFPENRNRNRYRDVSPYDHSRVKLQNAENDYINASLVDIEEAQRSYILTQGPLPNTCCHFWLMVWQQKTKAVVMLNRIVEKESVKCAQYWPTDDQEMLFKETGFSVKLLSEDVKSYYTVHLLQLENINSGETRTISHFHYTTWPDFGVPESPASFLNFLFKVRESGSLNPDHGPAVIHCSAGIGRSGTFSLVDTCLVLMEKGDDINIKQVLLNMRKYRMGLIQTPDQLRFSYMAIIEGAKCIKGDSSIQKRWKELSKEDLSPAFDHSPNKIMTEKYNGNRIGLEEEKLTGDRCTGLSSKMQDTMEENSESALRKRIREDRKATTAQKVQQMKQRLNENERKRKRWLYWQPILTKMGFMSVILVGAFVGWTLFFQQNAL
Assay: Selectivity assay against TCPTP
Format: biochemical
Settings: hPTP1B1–400 vs hTCPTP
Protocol: A spectrocolorimetric method previously described[3] was employed to test the inhibitory effect of the new compounds against PTP1B. […] Enzyme solutions containing pNPP and inhibitors were incubated at 37 °C for 15 min. […] The percentage of inhibition was plotted as a function of the inhibitor concentrations.
Similarly to the IC50, the assays to determine the selectivity were carried out in the same experimental conditions using hPTP1B1–400 and hTCPTP.
The expression vector pET-28a(+)-TEV was obtained from Invitrogen (Waltham, MA, USA). E. coli strain DH5α and BL21 (DE3) were purchased from Invitrogen (Waltham, MA, USA). The gene PTPN2 was subcloned into the expression vector pET-28a (+)-TEV, using the NDEI and BAMHI cloning sites. The construction pET-28A(+)-TEV–PTPN2 was transformed into E. coli strain BL21 (DE3). Transformed E. coli cells were grown in LB media containing kanamycin ([…]) at 37 °C for 6 h with continuous agitation (250 rpm). Once the cultures reached an A600 of 0.6 (about 6 h), protein expression was induced with 1 mM IPTG at 37 °C, 250 rpm for 8 h. After centrifuge (4500 rpm, 15 min, 4 °C), the grown and IPTG-induced cultures and bacterial pellet were resuspended in Tris buffer (pH 6.8) and lysed by sonication (10 cycles, intervals of 30 s) in an ice–water bath with an ultrasonic processor (Cole-Parmer, Vernon Hills, IL, USA). […]

O=C(O)C(=O)Nc1sc2c(c1C(=O)O)CCNC2 [TCS401, reference compound]
selectivity (PTP1B over TCPTP): No

From PMC11292843 (ACS Omega, 2024)
